Measured values published in ChEMBL document CHEMBL4342494 (ACS Med Chem Lett, 2020).

Protein sequences, listed by entry. Tags and fused reporters are not part of them.
UniProt P14416, whole entry: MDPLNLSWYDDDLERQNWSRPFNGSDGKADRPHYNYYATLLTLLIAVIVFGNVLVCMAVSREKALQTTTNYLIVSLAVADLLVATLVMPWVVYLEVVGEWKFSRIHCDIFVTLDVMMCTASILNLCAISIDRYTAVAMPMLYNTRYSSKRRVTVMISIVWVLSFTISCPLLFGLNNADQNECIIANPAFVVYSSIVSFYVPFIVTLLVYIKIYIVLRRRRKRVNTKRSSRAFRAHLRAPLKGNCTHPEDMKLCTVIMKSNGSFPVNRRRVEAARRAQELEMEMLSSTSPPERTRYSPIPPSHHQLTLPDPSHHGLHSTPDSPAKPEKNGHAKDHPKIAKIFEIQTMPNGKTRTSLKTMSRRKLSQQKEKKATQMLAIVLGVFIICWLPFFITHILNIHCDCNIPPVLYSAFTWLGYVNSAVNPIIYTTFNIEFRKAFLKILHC

Experiments:
D(2) dopamine receptor [1] = molecular target: T1, D(2) dopamine receptor (Homo sapiens, UniProt P14416)
D(2) dopamine receptor [2] = molecular target: T1, D(2) dopamine receptor; test: Antagonist activity at D2 long receptor (unknown origin) transfected in human HEK293T cells assessed as increase in cAMP accumulation incubated for 2 hrs by cAMP Glo-sensor assay; format: functional, cell-based
D(2) dopamine receptor [3] = molecular target: T1, D(2) dopamine receptor; test: Antagonist activity at C-terminal RLuc8-fused D2 long receptor (unknown origin) transfected in human HEK293T cells co-expressing N-terminal Venus-tagged beta-arrestin2 assessed as increase in beta-arrestin2 recruitment measured after 5 mins in presence of coelenterazine H by BRET assay; format: cell-based

| IC50 (D(2) dopamine receptor [2]) [nM] | IC50 (D(2) dopamine receptor [3]) [nM] | SMILES | pEC50 (D(2) dopamine receptor [1]) |
| --- | --- | --- | --- |
| – | – | COc1cccc(-c2cc3c(c(OC(C)=O)c2OC(C)=O)-c2cccc4c2[C@@H](C3)N(C)CC4)c1 | inactive |
| 104 | 1.83 | CCN1CCC[C@H]1CNC(=O)c1c(O)c(Cl)cc(Cl)c1OC (racemic) [RACLOPRIDE] | – |

Calls of active or inactive are those of the source. The calls are words filed in the database; no cut-off is given here.
